Measurements as given in IntAct's records for PubMed 22267482.

B1: Tumor necrosis factor-inducible gene 6 protein (Homo sapiens), P98066 (parent)
chain: MIILIYLFLLLWEDTQGWGFKDGIFHNSIWLERAAGVYHREARSGKYKLTYAEAKAVCEFEGGHLATYKQLEAARKIGFHVCAAGWMAKGRVGYPIVKPGPNCGFGKTGIIDYGIRLNRSERWDAYCYNPHAKECGGVFTDPKQIFKSPGFPNEYEDNQICYWHIRLKYGQRIHLSFLDFDLEDDPGCLADYVEIYDSYDDVHGFVGRYCGDELPDDIISTGNVMTLKFLSDASVTAGGFQIKYVAMDPVSKSSQGKNTSTTSTGNKNFLAGRFSHL

Variants of: B1
Conditions: with ptx3_human PTX3, P26022

| Variant | effect of a mutation on the interaction |
| --- | --- |
| MIILIYLFLLLWEDTQGWGFKDGIFHNSIWLERAAGVYHREARSGKFKLTYAEAKAVCEFEGGHLATYKQLEAARKIGFHVCAAGWMAKGRVGYPIVKPGPNCGFGKTGIIDYGIRLNRSERWDAYCYNPHAKECGGVFTDPKQIFKSPGFPNEYEDNQICYWHIRLKYGQRIHLSFLDFDLEDDPGCLADYVEIYDSYDDVHGFVGRYCGDELPDDIISTGNVMTLKFLSDASVTAGGFQIKYVAMDPVSKSSQGKNTSTTSTGNKNFLAGRFSHL [Y47F] | decreasing interaction strength |
| MIILIYLFLLLWEDTQGWGFKDGIFHNSIWLERAAGVYHREARSGKYKLTYAEAKAVCEFEGGHLATYKQLEAARKIGFHVCAAGWMAKGRVGFPIVKPGPNCGFGKTGIIDYGIRLNRSERWDAYCYNPHAKECGGVFTDPKQIFKSPGFPNEYEDNQICYWHIRLKYGQRIHLSFLDFDLEDDPGCLADYVEIYDSYDDVHGFVGRYCGDELPDDIISTGNVMTLKFLSDASVTAGGFQIKYVAMDPVSKSSQGKNTSTTSTGNKNFLAGRFSHL [Y94F] | with no effect |
| MIILIYLFLLLWEDTQGWGFKDGIFHNSIWLERAAGVYHREARSGKYKLTYAEAKAVCEFEGGHLATYKQLEAARKIGFHVCAAGWMAKGRVGYPIVKPGPNCGFGKTGIIDYGIRLNRSERWDAYCYNPHAKECGGVFTDPKQIFKSPGFPNEYEDNQICYWHIRLKYGQRIHLSFLDFDLSDDPGCLADYVEIYDSYDDVHGFVGRYCGDELPDDIISTGNVMTLKFLSDASVTAGGFQIKYVAMDPVSKSSQGKNTSTTSTGNKNFLAGRFSHL [E183S] | with no effect |
